These results are taken from publication PMC10683372 (Protein Science : A Publication of the Protein Society, 2023).

The target of this test is T1, α‐thrombin (αT) (Homo sapiens, UniProt P00734).
T1 construct: goes from Thr1 of the A-chain to Glu295 of the B-chain
The test is described as follows: Tight-binding inhibition of αT amidolytic activity on chromogenic substrate S2238. The format is biochemical.

For orientation: Ki means the equilibrium dissociation constant of an inhibitor or competing ligand from its target. Low readings indicate higher affinity, high ones lower affinity. `CCCC[C@H](NC(=O)CNC(=O)[C@H](Cc1cccc2ccccc12)NC(=O)[C@H](CCCNC(=N)N)NC(=O)[C@@H](N)[C@@H](C)CC)C(=O)NCC(=O)N[C@@H](CCCCN)C(=O)N[C@H](C(=O)N1CCC[C@H]1C(=O)NCC(=O)O)C(C)C` [Phe3αNal] displayed a Ki of 2300 ± 100 nM.
